From patent publication US10000793B2, “Method for enumeration of mammalian cell micronuclei, while distinguishing chromatin of dead and dying cells” (priority 2004, dated 2018)
Like-named read-outs stand apart in the source and are kept apart here.

Legend:
L5178Y cells [1] = details: short-term exposure, up to 5 mg/ml
Experimental: Once L5178Y or CHO-K1 cells were collected as described above, cytotoxicity measurements were performed as follows: 0.5 ml of each culture was added to flow cytometry tubes containing fluorescein diacetate (“FDA”) (0.075 μg/ml), propidium iodide (“PI”) (25 μg/ml), and 2.5 μm Carmine 580/620 microspheres (Molecular Probes, Eugene, Oreg.). The concentration of these “counting beads” was determined with a hemacytometer. […] Relative survival was then calculated as follows: The number of FDA+ cells in each chemical treatment culture was expressed as a percentage of the number of FDA+ cells in the concurrent solvent control culture.

L5178Y cells [2] = experiment: In vitro micronucleus test, flow cytometric (EMA/SYTOX) and microscopy scoring, L5178Y cells
Experimental: L5178Y cells were treated over a range of chemical concentrations in culture medium, one 25 cm^2 flask per concentration. During treatment, cells were at 3×10^5/ml in a volume of 20 ml per flask (this high number of cells facilitated multiple readings per flask). After a 4 hr treatment period, cells were washed one time via centrifugation at 600×g, resuspended in a volume of 40 ml culture medium, and transferred to 75 cm^2 flasks. Cells were re-incubated at 37° C. for 20 additional hrs—the equivalent of two normal doubling times.
In this case, cultures (1.5×10^5 cells/ml, 40 ml/flask) were continuously exposed to chemical over a range of concentrations. […]
Samples, stored for up to two days at 4° C., were gently tapped to resuspend the particles. […] SYTOX-associated fluorescence emission was collected in the FL1 channel (530/30 band-pass filter), and EMA-associated fluorescence was collected in the FL3 channel (670 long-pass filter). Events were triggered on FL1 fluorescence. The FCM gating strategy that was developed for this micronuclei scoring application required events to meet each of six separate criteria before they were scored as nuclei or micronuclei (see FIGS. 2A-H). The incidence of flow cytometric-scored micronuclei is expressed as frequency percent (no. micronuclei/no. nuclei×100), and are based on the acquisition of 20,000 EMA-negative nuclei per specimen. […]

OC[C@H]1O[C@@](CO)(O[C@H]2O[C@H](CO)[C@@H](O)[C@H](O)[C@H]2O)[C@@H](O)[C@@H]1O [Sucrose]
cytotoxicity (relative survival) (L5178Y cells [1]): significant cytotoxicity was not observed | cytotoxicity (relative survival) (L5178Y cells [1]; listed as sucrose): neither cytotoxic nor genotoxic | MN Induction (≥3-fold) (L5178Y cells [2]): No | genotoxicity (micronucleus induction) (L5178Y cells [2]; L5178Y cells, short-term exposure (4 hr, 20 hr recovery), up to 5 mg/ml): neither cytotoxic nor genotoxic
